The numbers were not newly measured in paper PMC8518066, “Efficient Entropy‐Driven Inhibition of Dipeptidyl Peptidase III by Hydroxyethylene Transition‐State Peptidomimetics” (Chemistry (Weinheim an Der Bergstrasse, Germany), 2021), which cites them from elsewhere.

Bounds are passed on as bounds.

For the data set the following is noted: 37 °C; cited from earlier work.

As to tynorphin [reference compound], the “time to complete degradation in human serum” value is listed as ≤ 4 h.
